Compound activity (PubChem BioAssay)
Sampled rows, rich in hits. Any-hit rate of the full collection: about 13%.
JMJD2E inh: blocks human JMJD2E demethylase activity | B2RXH2 | JMJD2E catalytic domain, FDH-coupled NADH fluorescence (FDH is formaldehyde dehydrogenase) | Potency, µM (titrated, usually from 57.1 µM), for the others: top-dose activity change, negative = inhibition, usual class: inhibitors | hit rate 1.6% among 230,000; active = well fitted inhibition curve with a large enough effect, not every such curve was filed as active; inconclusive = small, poorly fitted or top-dose-only effect, or another doubt; inactive = no such curve, though single readings can be large or run the other way;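 also: potency is read from the fitted curve at half-maximal effect; 0% = wells with enzyme and -100% = buffer wells without enzyme; nearly all actives have a fitted effect of over 50% in size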
G9a block: blocks human histone lysine methyltransferase G9a | Q96KQ7 | G9a H3K9 monomethylation, AlphaScreen, 2 h | Potency, µM (doses to about 102 µM), for the others: top-dose activity, negative = inhibition, most hits filed as inhibitors | hit rate 8.8% among 350,000 | AID 504332; also: potency is read from the fitted curve at half-maximal effect; % is scaled to controls: 0 for no effect and ±100 for the full control effect; nearly all actives have a fitted effect of over 75% in size
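Signal arises when biotinylated H3K9 peptide, once monomethylated, bridges streptavidin donor and antibody-captured acceptor beads. Enzyme at 20 nM was preincubated 15 min with test compounds; peptide 500 nM and SAM 20 uM then reacted for 2 h.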
ALDH1A1 block: blocks purified human ALDH1A1 activity. P00352. Purified ALDH1A1, NADH fluorescence, propionaldehyde substrate. Potency, µM (titrated, usually from 75.3 µM), for the others: at the highest dose activity, negative = inhibition, most hits filed as inhibitors. hit rate 7.3% among 220,000; active = well fitted inhibition curve with a large enough effect, not every such curve was filed as active; inconclusive = small, poorly fitted or top-dose-only effect, or another doubt; inactive = no such curve, though single readings can be large or run the other way;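 also: potency is read from the fitted curve at half-maximal effect; plate controls were no enzyme wells and a reference inhibitor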
miR-21 FLuc: raises the signal of a miR-21 reporter; HeLa miR-21 FLuc reporter, luciferase, 48 h; Potency, µM (top dose mostly 38.3 µM), for inactives: at the highest dose reporter change, positive = more light; AID 2288; 340,000 tested, under 10 active; active = well fitted rising curve with a large enough effect; inconclusive = small, poorly fitted or top-dose-only effect; inactive = no such curve, though single readings can be large or run the other way;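 note: % of control where 0% means no effect; miR-21 action dims this reporter so a rising signal means less miR-21 action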
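Compounds were titrated across several concentrations (up to approximately 40 uM) and incubated 48 hours with HeLa miR-21-FLuc reporter cells (miR-21 target sequence downstream of FLuc, endogenous miR-21). Readout was firefly luciferase luminescence after lytic detection reagent.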
Lamin A splicing: modulators of lamin A splicing; HeLa LMNA splicing GFP/RFP minigene ratio, 48 h; Potency, µM (titrated, usually from 46.1 µM), for inactives: at the top dose ratio change, negative = inhibition, usual class: inhibitors; hit rate 0.01% among 200,000; AID 1487; active = well fitted inhibition curve with a large enough effect in the signal ratio, with a control signal flat, not every such curve was filed as active; inconclusive = small, poorly fitted or top-dose-only effect, or effect the other way, or a change in a side signal; the % refers to the signal ratio; also: potency is read from the fitted curve at half-maximal effect; % is scaled to controls: 0 for no effect and ±100 for the full control effect
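Read-out is the ratio of GFP to DsRed2 object intensity, acquired by 488 nm laser-scanning cytometry on HeLa lamin A-EGFP minigene reporter cells. Compound incubation 48 hrs at 37 °C in Opti-MEM with 2% FBS; DMSO 0.5% final.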
Sfp inh: qHTS Assay for Inhibitors of Bacillus subtilis Sfp phosphopantetheinyl transferase (PPTase). Biochemical Sfp PPTase activity, qHTS. Potency, µM, for inactives: max response, negative = inhibition, most hits filed as inhibitors. 310,000 compounds, 3.5% hits. 4'-phosphopantetheinyl transferase ffp (Bacillus subtilis), Q9F4F7; active = well fitted inhibition curve with a large enough effect; inconclusive = small, poorly fitted or top-dose-only effect, or another doubt; inactive = no such curve, though single readings can be large or run the other way;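 note: the enzyme is Sfp with the accession as filed and its product quenches rhodamine fluorescence; potency is the fitted concentration of half-maximal effect; 0% = enzyme reaction without inhibitor and -100% = no enzyme wells; top concentration of the series not given in the record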
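Compounds were incubated with enzyme (final 15 nM) for 15 min at room temperature before substrate addition started the reaction. Fluorescence at 525 nm excitation, 598 nm emission was recorded immediately and after 30 minutes.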
Numbers without * were called inactive; [ ] = another dose, or the depositor's remark. Unless noted, calls follow the shape of the dose curve; as a rule, active = well fitted curve in the direction sought with a large enough effect; inconclusive = small, poorly fitted or top-dose-only effect, or another doubt; inactive = no such curve, though single readings can be large; an effect the other way counts as inactive or inconclusive.

What do the screens show for `Cc1c(CN2CCC(Oc3ccc(C(=O)N4CCCCC4)cc3)CC2)cnn1C`?
G9a block: 14.0%; miR-21 FLuc: -6.1%; Sfp inh: 12.4%

Results for COc1ccc(C(=O)Nc2ccccc2N2CCCC2)cc1S(=O)(=O)N1CCOCC1 ?
G9a block: 10µM*

How did Cc1ccc(C(=O)Nc2nncs2)cc1S(=O)(=O)N1CCOCC1 do in these assays?
JMJD2E inh: -4.6%; G9a block: -25.8%[12.7 µM]; ALDH1A1 block: inconclusive; miR-21 FLuc: -7.8%; Lamin A splicing: 11.0%; Sfp inh: 10.9%

How did COc1ccc(C(=O)Nc2nncs2)cc1S(=O)(=O)N1CCOCC1 do in these assays?
G9a block: 56.2µM*; miR-21 FLuc: 0.1%; Sfp inh: 13.3%

What do the screens show for `COc1ccc(C(=O)NC(=S)N2CCCc3ccccc32)cc1OC`?
JMJD2E inh: inconclusive; G9a block: inconclusive; ALDH1A1 block: inconclusive; miR-21 FLuc: -18.5%; Sfp inh: inconclusive

Results for COc1ccccc1C(=O)NC(=S)N1CCc2ccccc21 ?
JMJD2E inh: -14.8%; G9a block: 44.7µM*; ALDH1A1 block: 14.1µM*; miR-21 FLuc: -25.9%; Lamin A splicing: -17.7%[46 µM]; Sfp inh: -6.7%

Results for COc1ccccc1C(=O)NC(=S)N1CCCc2ccccc21 ?
JMJD2E inh: -6.7%; G9a block: 10µM*; ALDH1A1 block: 3.16µM*; miR-21 FLuc: -43.8%; Lamin A splicing: -7.5%; Sfp inh: 50.1µM*

How did CC(C)C(=O)NC(=S)N1CCc2ccccc21 do in these assays?
JMJD2E inh: 4.5%; G9a block: inconclusive; ALDH1A1 block: -5.0%; miR-21 FLuc: -14.5%; Lamin A splicing: inconclusive; Sfp inh: 11.1%

Results for CCC(=O)C1=C(c2cccc([N+](=O)[O-])c2)N(C(=O)CC)n2c(nnc2-c2ccccc2)S1 ?
G9a block: 11.3%[59 µM]; miR-21 FLuc: -0.7%; Lamin A splicing: inconclusive

How did CCOC(=O)C1CCN(CC(=O)Nc2cc(S(=O)(=O)N3CCCCC3)ccc2Cl)CC1 do in these assays?
G9a block: 0.9%

Results for O=C(CN1CCN(c2ccc(O)cc2)CC1)Nc1cc(S(=O)(=O)N2CCCCC2)ccc1Cl ?
JMJD2E inh: -10.2%; G9a block: 7.94µM*; ALDH1A1 block: 23.8µM*; miR-21 FLuc: 7.0%; Sfp inh: 56.2µM*

How did O=C(CN1CCN(c2ccc(O)cc2)CC1)Nc1cc(S(=O)(=O)N2CCCC2)ccc1Cl do in these assays?
JMJD2E inh: inconclusive; G9a block: 8.91µM*; ALDH1A1 block: 14.1µM*; miR-21 FLuc: -7.5%; Sfp inh: 44.7µM*

What do the screens show for `CC1CN(CC(=O)Nc2cc(S(=O)(=O)N3CCCC3)ccc2Cl)CC(C)O1` (stereo not drawn)?
JMJD2E inh: 0.9%; G9a block: 4.5%; ALDH1A1 block: -2.3%; miR-21 FLuc: 1.5%; Lamin A splicing: inconclusive; Sfp inh: 8.8%

Results for Cn1c(Cl)cnc1C1CC(=O)c2cc(Cl)ccc2O1 (stereo not drawn) ?
JMJD2E inh: -29.6%; G9a block: inconclusive; ALDH1A1 block: 17.8µM*; miR-21 FLuc: inconclusive; Lamin A splicing: inconclusive; Sfp inh: inconclusive

How did O=C1CC(c2ccccc2)Oc2ccccc21 (stereo not drawn) do in these assays?
JMJD2E inh: inconclusive; ALDH1A1 block: -3.1%; Lamin A splicing: -4.2%; Sfp inh: -1.6%

Results for COCc1cc(O)c(O)c(O)c1-c1c(COC)cc(O)c(O)c1O ?
G9a block: 1µM*; ALDH1A1 block: inconclusive; Sfp inh: 7.94µM*

What do the screens show for `CCc1ccc(C2=NNC(=Nc3c(C)n(C)n(-c4ccccc4)c3=O)SC2)cc1`?
JMJD2E inh: 6.0%; G9a block: 25.1µM*; ALDH1A1 block: inconclusive; miR-21 FLuc: -15.4%; Sfp inh: -21.4%

What do the screens show for `Cc1c(N=C2SCC(=O)N2/N=C/c2ccccc2)c(=O)n(-c2ccccc2)n1C`?
JMJD2E inh: 10.9%; G9a block: -5.5%; ALDH1A1 block: 11.2%; miR-21 FLuc: -0.3%; Lamin A splicing: -4.9%; Sfp inh: 19.0%

Results for CN(C1CCCC1)C1CCN(C(=O)CNC(=O)/C=C/c2ccccc2)CC1 ?
JMJD2E inh: 8.6%; G9a block: -11.0%[59 µM]; ALDH1A1 block: inconclusive; miR-21 FLuc: -11.0%; Lamin A splicing: inconclusive; Sfp inh: 7.7%

Results for COc1ccc(/C=C/C(=O)NCC(=O)N2CCC(N(C)CCN3CCOCC3)CC2)cc1OC ?
JMJD2E inh: inconclusive; G9a block: 7.94µM*; ALDH1A1 block: inconclusive; miR-21 FLuc: -0.1%; Sfp inh: -6.9%

What do the screens show for `COc1cccc(NC(=O)C(=O)NCC(c2cccnc2)N2CCN(c3ccccc3)CC2)c1` (stereo not drawn)?
G9a block: -18.2%[59 µM]; miR-21 FLuc: 3.2%; Lamin A splicing: -13.9%[46 µM]

What do the screens show for `Cc1ccc(Cl)cc1NC(=O)C1CCN(C(=O)c2cnn(-c3ccccc3)c2-n2cccc2)CC1`?
G9a block: 17.6%[59 µM]; miR-21 FLuc: 13.1%

Results for O=C(NNC(=S)Nc1ccc(Br)cc1Cl)c1ccncc1 ?
JMJD2E inh: -1.0%; G9a block: inconclusive; ALDH1A1 block: 17.8µM*; miR-21 FLuc: -31.3%; Lamin A splicing: 3.9%; Sfp inh: 23.0%

What do the screens show for `O=C(CCc1ccc(O)c(O)c1)NNC(=S)Nc1ccc(Br)cc1Cl`?
JMJD2E inh: 8.2%; G9a block: 17.8µM*; ALDH1A1 block: 25.1µM*; miR-21 FLuc: -1.2%; Lamin A splicing: inconclusive; Sfp inh: 29.6%

How did COc1cccc(NC(=O)Nc2ccc3c(c2)nc(C)n3C)c1 do in these assays?
JMJD2E inh: 3.6%; G9a block: 29.1%[0.501 µM]; ALDH1A1 block: 14.9%; miR-21 FLuc: 2.2%; Lamin A splicing: inconclusive; Sfp inh: 4.9%

Results for Cc1nc2ccccc2n1Cc1ccccc1 ?
miR-21 FLuc: 2.0%; Sfp inh: -1.0%

How did Cc1nc2cc(NCc3ccc(Cl)cc3)ccc2n1C do in these assays?
miR-21 FLuc: -25.8%; Sfp inh: -7.4%

How did COc1ccc(CNc2ccc3c(c2)nc(C)n3C)cc1 do in these assays?
JMJD2E inh: inconclusive; G9a block: 3.55µM*; ALDH1A1 block: inconclusive; miR-21 FLuc: -36.7%; Lamin A splicing: 23.3%; Sfp inh: 5.5%

What do the screens show for `Cc1ccc(CNc2ccc3c(c2)nc(C)n3C)cc1`?
G9a block: 25.1µM*; miR-21 FLuc: -5.5%; Sfp inh: -6.7%

What do the screens show for `Cc1nc2cc(NCc3ccccc3O)ccc2n1Cc1ccccc1`?
JMJD2E inh: 39.8µM*; ALDH1A1 block: inconclusive; miR-21 FLuc: -30.1%; Lamin A splicing: -9.8%[46 µM]; Sfp inh: -10.6%

3 entries out of the list, sorted by formula weight, ascending:
How did Cc1nc2cc(NCc3ccc(Cl)cc3)ccc2n1C do in these assays?
miR-21 FLuc: -25.8%; Sfp inh: -7.4%

What do the screens show for `O=C(CCc1ccc(O)c(O)c1)NNC(=S)Nc1ccc(Br)cc1Cl`?
JMJD2E inh: 8.2%; G9a block: 17.8µM*; ALDH1A1 block: 25.1µM*; miR-21 FLuc: -1.2%; Lamin A splicing: inconclusive; Sfp inh: 29.6%

What do the screens show for `Cc1ccc(Cl)cc1NC(=O)C1CCN(C(=O)c2cnn(-c3ccccc3)c2-n2cccc2)CC1`?
G9a block: 17.6%[59 µM]; miR-21 FLuc: 13.1%
